# Results as given in patent US6913767B1, “Compositions for microencapsulation of antigens for use as vaccines” (priority 1993, dated 2005).
# Experiment: Stability (intact fraction) of QS21
# Type: physicochemical
substance,measurement,setting,value
QS21,degradation rate of QS21 at pH 7.4 relative to pH 5.5,40° C.,twenty fold greater
same,intact QS21 remaining,74 days at pH 5.5 and 40° C.,less than 50%
